These results are taken from patent US12221649B2 (priority 2018, dated 2025).

By UniProt entry, the sequences of proteins in these tests, tags left out.
UniProt Q04609, whole entry: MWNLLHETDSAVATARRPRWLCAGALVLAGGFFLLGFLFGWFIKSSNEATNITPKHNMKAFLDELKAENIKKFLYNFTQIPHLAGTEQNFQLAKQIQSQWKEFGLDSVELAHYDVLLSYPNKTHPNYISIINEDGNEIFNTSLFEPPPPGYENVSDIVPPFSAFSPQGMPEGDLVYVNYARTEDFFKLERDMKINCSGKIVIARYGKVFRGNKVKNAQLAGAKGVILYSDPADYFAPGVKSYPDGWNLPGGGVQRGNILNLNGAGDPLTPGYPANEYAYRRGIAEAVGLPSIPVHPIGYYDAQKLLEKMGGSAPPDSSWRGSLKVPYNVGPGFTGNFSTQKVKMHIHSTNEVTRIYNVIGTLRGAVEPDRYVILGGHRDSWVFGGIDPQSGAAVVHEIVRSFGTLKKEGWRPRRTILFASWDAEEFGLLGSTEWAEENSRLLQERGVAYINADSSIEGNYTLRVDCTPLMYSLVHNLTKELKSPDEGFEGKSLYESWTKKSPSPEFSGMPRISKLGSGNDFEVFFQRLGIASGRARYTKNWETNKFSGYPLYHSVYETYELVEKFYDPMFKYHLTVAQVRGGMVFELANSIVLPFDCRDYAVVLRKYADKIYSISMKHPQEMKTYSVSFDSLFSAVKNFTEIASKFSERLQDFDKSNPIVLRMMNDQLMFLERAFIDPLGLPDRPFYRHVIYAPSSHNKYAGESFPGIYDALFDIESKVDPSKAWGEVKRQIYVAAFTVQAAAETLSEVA

The target in the experiment is PSMA (Homo sapiens, UniProt Q04609). Description: Enzyme assay of probes and PSMA (fluorescence increase). To be noted: 10 μM inhibitor, 10 μM 4MU-tSoul-GE, 22 ng PSMA. Type of experiment: biochemical. The protocol: An enzyme assay was performed using the synthesized 4MU-tSoul-AE and PSMA.
Here, 10 μM 4MU-tSoul-AE in TBS buffer was incubated at 37° C. with 22 ng PSMA in the presence or absence of 10 μM inhibitor (2-PMPA) containing 0.1% DMSO as a co-solvent. Ex/Em=355/460 nm. n=3.
An enzyme assay was performed using the synthesized 4MU-tSoul-GE and PSMA. […] It can be said that this indicates strength of the present molecular design in which not only C-terminal amino acid to be cleaved by carboxypeptidase but also a structure of adjacent amino acid can be flexibly selected (FIG. 9).
Here, FIG. 9(a) illustrates a reaction scheme of 4MU-tSoul-GE and PSMA. In FIG. 9(b), 10 μM 4MU-tSoul-GE in TBS buffer was incubated at 37° C. with 22 ng PSMA in the presence or absence of 10 μM inhibitor (2-PMPA) containing 0.1% DMSO as a co-solvent. Ex/Em=355/460 nm. n=3.

In the case of `O=C(O)CCC(CP(=O)(O)O)C(=O)O` (stereo not shown) [Compound 2-PMPA, reference compound], the “effect of inhibitor on the increase in fluorescence of 4MU-tSoul-GE with PSMA” value is reported as “suppressed”.
